Measured values reported in ChEMBL document CHEMBL1132231, “New generation dopaminergic agents. 6. Structure-activity relationship studies of a series of 4-(aminoethoxy)indole and 4-(aminoethoxy)indolone derivatives based on the newly discovered 3-hydroxyphenoxyethylamine D2 template” (J Med Chem, 1999).

Chains of the proteins cited; added tags and fusions are not shown.
UniProt P61169, whole entry: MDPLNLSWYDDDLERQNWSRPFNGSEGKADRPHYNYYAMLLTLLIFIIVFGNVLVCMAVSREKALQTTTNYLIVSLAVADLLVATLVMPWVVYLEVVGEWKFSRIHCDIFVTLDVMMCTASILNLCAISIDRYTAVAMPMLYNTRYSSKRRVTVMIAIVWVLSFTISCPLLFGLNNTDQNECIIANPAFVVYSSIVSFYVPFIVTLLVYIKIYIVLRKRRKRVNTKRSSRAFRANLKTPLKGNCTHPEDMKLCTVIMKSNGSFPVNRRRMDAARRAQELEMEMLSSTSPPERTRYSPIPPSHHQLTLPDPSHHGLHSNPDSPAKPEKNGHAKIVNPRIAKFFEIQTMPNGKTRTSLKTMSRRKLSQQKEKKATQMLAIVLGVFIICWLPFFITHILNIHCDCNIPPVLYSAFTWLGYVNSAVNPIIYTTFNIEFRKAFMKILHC

What was measured:
[1] = target: D(2) dopamine receptor (Rattus norvegicus) (UniProt P61169); assay: Ratio of Dopamine D2 receptor (low)and Dopamine D2 receptor (high)
Procedure, shortened: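 Ratio Ki(low)/Ki(high). Ki(low) comes from displacement of 1 nM [3H]spiperone in striatal membranes with 1 mM GppNHp and NaCl, 37 °C for 5 min. […] Both Ki values derived by Cheng-Prusoff from nine concentrations in triplicate; the ratio serves as an estimate of intrinsic activity.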

[2] = target: D(2) dopamine receptor (Rattus norvegicus, UniProt P61169); assay: In vitro low binding affinity towards Dopamine receptor D2 by the displacement of [3H]spiperone radioligand in rat striatal membranes; type: cell membranes, Membrane

Structure (SMILES) | Ratio [1] | Ki [2] [nM]
O=C(c1c[nH]c2c(Cl)ccc(OCCNCc3ccccc3)c12)C(F)(F)F | 1 | 
O=C1Cc2c(OCCNCc3cccc(-c4ccccc4)c3)ccc(F)c2N1 |  | 3.92
